SMILES strings stand for the structures. The entries are a selection whose mix differs from that of the whole data set. Activity calls are given as the source filed them. Cut-off read from the data, not from the text of the source: active = activation above about 4%; inactive = the rest.

Experimental findings from PubChem BioAssay AID602270 (The Scripps Research Institute Molecular Screening Center, 2012) are described below.

The assay deals with Methionine sulfoxide reductase A (Bos taurus). As to the kind of experiment: bovine MsrA activators, retest, confirmation, biochemical, absorbance, HTS (AID 602270).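 Note: enzyme coupled to thioredoxin and thioredoxin reductase with NADPH; 0% = vehicle wells and 100% = reference activator wells.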 To be noted: purified bovine MsrA, absorbance read-out; at 10.6 µM; stronger effect = higher value.

Regarding `O=C(NC(Sc1ccncn1)C(Cl)(Cl)Cl)c1ccccc1` (configuration not stated), the activation is inactive: 2.45%.

For `CC(C)(C)C(=O)NC(Sc1ccncn1)C(Cl)(Cl)Cl` (configuration not stated), the activation is active: 4.53%.
